Source: US12528776B2, “Composition and method for treating dermatological disorders using retinamides” (UNIVERSITY OF MARYLAND, Baltimore, priority 2019, dated 2026)

System: keratin 10 (K10), keratin 19 (K19) and filaggrin expression in RHE cultures
Test: RHE immunostaining for K10, K19 and filaggrin
Conditions: 0.02% topical, 3 days, immunolabelling

SMILES | expression of K10 and filaggrin in sb and sg layers of RHE | expression of K19 in viable cell layers of RHE
CC1=C(/C=C/C(C)=C/C=C/C(C)=C\C(=O)O)C(C)(C)CCC1 [Compound 13-CRA, 13-cis-retinoic acid] | slightly increased compared to VNLG-152 and ATRA treated tissues | although higher to control, was comparatively lower than VNLG-152 or ATRA treated groups
CC1=C(/C=C/C(C)=C/C=C/C(C)=C/C(=O)O)C(C)(C)CCC1 [ATRA, all-trans-retinoic acid] | – | induced significant increase in the expression of K19
CC1=C(/C=C/C(C)=C/C=C/C(C)=C/C(=O)Nc2ccc(F)cc2)C(C)(C)CCC1n1ccnc1 (stereo not shown) [VNLG-152] | – | induced significant increase in the expression of K19
